Patent US20120202814A1, “COMPOUNDS WITH DDX3 INHIBITORY ACTIVITY AND USES THEREOF” (UNIVERSITÀ DEGLI STUDI DI SIENA, priority 2009, published 2012)
Where two headings read alike, the source gives them in different places.

Sequences of proteins named here, by UniProt entry; tags and fusion partners are left off.
UniProt O00571, whole entry: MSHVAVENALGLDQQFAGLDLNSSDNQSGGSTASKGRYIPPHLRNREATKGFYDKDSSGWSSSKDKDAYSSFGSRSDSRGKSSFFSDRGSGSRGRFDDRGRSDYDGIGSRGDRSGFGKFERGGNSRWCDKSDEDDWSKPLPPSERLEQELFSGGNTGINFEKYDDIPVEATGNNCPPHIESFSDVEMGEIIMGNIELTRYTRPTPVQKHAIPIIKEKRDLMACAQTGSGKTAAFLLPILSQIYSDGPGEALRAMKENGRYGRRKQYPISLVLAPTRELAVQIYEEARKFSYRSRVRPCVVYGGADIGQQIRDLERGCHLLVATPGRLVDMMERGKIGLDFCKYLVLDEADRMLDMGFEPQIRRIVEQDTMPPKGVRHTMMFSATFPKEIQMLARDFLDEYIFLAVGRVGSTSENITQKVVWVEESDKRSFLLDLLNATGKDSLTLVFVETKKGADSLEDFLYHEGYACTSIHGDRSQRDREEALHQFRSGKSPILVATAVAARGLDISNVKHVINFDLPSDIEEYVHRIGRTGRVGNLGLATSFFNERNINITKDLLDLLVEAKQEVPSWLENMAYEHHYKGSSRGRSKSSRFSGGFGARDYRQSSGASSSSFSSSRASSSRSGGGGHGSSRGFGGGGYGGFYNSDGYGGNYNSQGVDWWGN

Columns and labels:
[1] = biological target: human DDX3 (ATPase activity) (Homo sapiens, UniProt O00571); experiment: Human DDX3 ATPase activity assay (luciferase-based luminescence); details: read-out: Ki (μM), apparent equilibrium dissociation constant for the inhibitor to the target enzyme DDX3
Method: ATPase activity was tested with a luciferase-based luminescence assay (Easylite-Kinase, Perkin Elmer) on 96 wells microtiter plates. Briefly, recombinant purified human DDX3 (50-100 ng) was incubated in a 15 μL total reaction volume with reaction buffer (25 mM TrisHCl pH 7.5, 5 mM MgCl2), in the presence of increasing amounts of ATP and/or different combinations of ATP and the inhibitor to be tested. Reference curves in the absence of inhibitor (giving the 100% of enzymatic activity) and in the absence of enzyme (giving the baseline), were also included in each experiment. Reading was performed with a Microbeta Trilux (Perkin Elmer) luminometer, according to the manufacturer's protocol.
ATPase reactions were performed as described, in the presence of increasing amounts of inhibitor and variable ATP concentrations. Variations of the initial velocities of the reaction as a function of ATP concentrations in the absence or presence of 4 were analyzed with the equation: […]
where Vmax is the apparent maximal rate of the reaction in the absence of the inhibitor, [I] is the variable inhibitor concentration, n is the cooperativity index and Ki(app) is the apparent inhibition constant. […] F test was used to compare the two fittings and p value was calculated. […]

[2] = system: cervical cancer HeLa cell line; experiment: Antiproliferative activity against HeLa cells (CellTiter viability assay)
Method: Selected compounds from Table 1 were tested against the cervical cancer HeLa cell line for antiproliferative activity. Cell viability was measured with the CellTiter viability assay (Table 2). Table 3 lists the calculated antiproliferative potencies (EC50, dose required to suppress 50% of cell viability) for a series of representative compounds of the invention.

Structure (SMILES): Oc1ccccc1/C=N/Nc1nc(NCc2ccc(F)cc2)nc(N2CCOCC2)n1
- Ki [1]: 0.6 µM
- EC50 ([2]; read-out: EC50 (μM) 48 hours, dose required to suppress 50% of cell viability, 48 hours): 5 µM
- EC50 ([2]; read-out: EC50 (μM) 72 hours, dose required to suppress 50% of cell viability, 72 hours): 2 µM
